By IC50 is commonly meant the concentration that gives 50% inhibition.

The chains behind the UniProt entries cited, without tags or fusion partners.
UniProt P48048, whole entry, species assumed: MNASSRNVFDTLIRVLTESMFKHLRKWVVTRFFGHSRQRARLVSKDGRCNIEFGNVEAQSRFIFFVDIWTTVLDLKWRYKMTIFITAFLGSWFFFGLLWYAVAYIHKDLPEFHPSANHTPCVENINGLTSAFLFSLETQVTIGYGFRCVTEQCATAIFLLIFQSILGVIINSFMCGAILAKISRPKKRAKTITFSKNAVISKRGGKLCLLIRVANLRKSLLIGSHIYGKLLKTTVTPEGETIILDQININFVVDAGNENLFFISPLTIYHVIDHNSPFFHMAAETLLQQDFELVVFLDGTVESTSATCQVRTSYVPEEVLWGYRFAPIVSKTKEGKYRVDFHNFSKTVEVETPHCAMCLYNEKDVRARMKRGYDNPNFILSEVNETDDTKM

For one experiment, the target named is hROMK (hKir1.1) (Homo sapiens (Human), UniProt P48048). The experiment in a line: Thallium Flux Assay. The class given is cell-based. As to conditions: HEK293 cells stably expressing hROMK (hKir1.1); FLIPR-Tetra, 30 min compound incubation. An excerpt: (§1) Several assays may be used to measure functional inhibition of the ROMK channel by compounds of the instant invention. One assay that can be used is an electrophysiology assay that measures the electrical current that is generated as potassium permeates through the channel. Another ROMK functional assay makes use of the ability of thallium to permeate through open ROMK channels and increase the fluorescence of a dye previously loaded into the cells. Under control conditions, cells loaded with dye and exposed to thallium-containing medium display a time-dependent increase in fluorescence, the rate of which depends on number of functional channels. When cells are incubated in the presence of a channel inhibitor, the increase in fluorescence is attenuated in a concentration-dependent manner, and IC50 values of inhibition by compounds can be accurately determined. This assay has been established with cell lines expressing either human, or rat ROMK channels, and operates in 384-well format.
HEK293 cells stably expressing hROMK (hKir1.1) were grown at 37° C. in a 10% CO2 humidified incubator in complete growth media: Dulbecco's Modified Eagle Medium supplemented with non-essential amino acids, Penicillin/Streptomycin/Glutamine, G418 and FBS. At >80% confluency, the media was aspirated from the flask and the sample was rinsed with 10 ml Calcium/Magnesium-free PBS. […] To dislodge the cell, the side of the flask was gently banged with a hand. The cells were triturated completely and then transferred to 25 ml complete media. The sample was then centrifuged at 1,500 rpm for 6 minutes, followed by resuspension in complete growth media and then cell concentration was determined. […] Under ideal growth conditions and appropriate tissue culture practices, this cell line is stable for 40-45 passages.
• FluxOR™ Reagent (Component A) • FluxOR™ Assay Buffer (Component B)—10× Concentrate • PowerLoad™ Concentrate (Component C)—100× Concentrate • Probenecid (Component D)—Lyophilized sample is kept at −20° C. Water soluble, 100× after solubilization in 1 ml water. […] Store at 4° C. • Thallium sulfate (Tl2SO4) Concentrate (Component G)—50 mM in water. […] Can be stored at room temperature • Stimulant Buffer (prepared at 5× final concentration in 1× FluxOR™ Chloride-Free Buffer): 7.5 mM Thallium sulfate and 0.75 mM Potassium sulfate (to give a final assay concentration of 3 mM Thallium/0.3 mM Potassium). Store at 4° C. when not in use. If kept sterile, this solution is good for months. Assay Protocol—
The ROMK channel functional thallium flux assay is performed in 384 wells, using the FLIPR-Tetra instrument. HEK-hKir1.1 cells are seeded in Poly-D-Lysine microplates and kept in a 37° C.-10% CO2 incubator overnight. On the day of the experiment, the growth media is replaced with the FluxOR™ reagent loading buffer and incubated, protected from light, at ambient temperature (23-25° C.) for 90 min. The loading buffer is replaced with assay buffer±test compound followed by 30 min incubation at ambient temperature, where the Thallium/Potassium stimulant is added to the microplate.
• 1. Seed HEK-hKir1.1 cells (50 μl at 20,000 cells/well) in 384-well PDL coated Microplates • 2. Allow cells to adhere overnight in humidified 37° C./10% CO2 incubator • 3. Completely remove cell growth media from microplate and replace with 25 μl loading buffer • 4. Incubate Microplate at room temperature, protected form light, for 90 min • 5. Remove loading buffer and replace with 25 μl 1× Assay Buffer±test compound. • 6. Incubate microplate at room temperature, protected form light, for 30 min • 7. […] Excitation=400 nm, Emission=460 & 580 nm. Collect data for 10 min. Data Calculation—
The fluorescence intensity of wells containing 3 μM of a standard control ROMK inhibitor of the present invention is used to define the ROMK-sensitive component of thallium flux. Fluorescence in the presence of test compounds is normalized to control values to provide % fluorescence change.

The next experiment concerns the target Kir1.1 (ROMK1) (Homo sapiens (Human), UniProt P48048). The experiment in a line: Electrophysiology Assay (whole cell voltage clamp, IonWorks Quattro). Type of experiment: cell-based. Conditions: Chinese hamster ovary cells stably expressing Kir1.1; block at voltage step to 0 mV, 6 minutes compound incubation; read-out: EP Assay IC50.
Excerpt: as §1
Block of Kir1.1 (ROMK1) currents was examined by whole cell voltage clamp (Hamill et. al. Pfluegers Archives 391:85-100 (1981)) using the IonWorks® Quattro automated electrophysiology platform (Molecular Devices, Sunnyvale, Calif.). Chinese hamster ovary cells stably expressing Kir1.1 channels were maintained in T-75 flasks in cell culture media in a humidified 10% CO2 incubator at 37° C. Prior to an experiment, Kir1.1 expression was induced by overnight incubation with 1 mM sodium butyrate. On the day of the experiment, cells were dissociated with 2.5 ml of Versene™ (Invitrogen 15040-066) for approximately 6 minutes at 37° C. and suspended in 10 ml of bath solution containing (in mM): 150 NaCl, 10 KCl, 2.7 CaCl2, 0.5 MgCl2, 5 HEPES, pH 7.4. After centrifugation, the cell pellet was resuspended in approximately 4.0 ml of bath solution and placed in the IonWorks® instrument. The intracellular solution consisted of (in mM): 80 K gluconate, 40 KCl, 20 KF, 3.2 MgCl2, 3 EGTA, 5 Hepes, pH 7.4. Electrical access to the cytoplasm was achieved by perforation in 0.13 mg/ml amphotericin B for 4 minutes. Amphotericin B (Sigma A-4888) was prepared as a 40 mg/ml solution in DMSO.
Voltage protocols and current recordings were performed using the IonWorks® HT software/hardware system. Currents were sampled at 1 kHz. No correction for liquid junction potentials was used. […] Current amplitudes were measured using the IonWorks® software. To assess compound potency, the fractional block during the voltage step to 0 mV was calculated in Microsoft® Excel (Microsoft, Redmond, Calif.), and dose-response curves were fitted with Igor Pro 4.0 (WaveMetrics, Lake Oswego, Oreg.). […]

Turning to `Cc1c([C@@H](O)CN2CC3CCN(C[C@H](O)c4ccc5c(c4C)COC5=O)C3C2)ccc2c1COC2=O` (single isomer, unassigned) [Example 4A], the IC50 on hROMK (hKir1.1) was determined as 62 nM. Take `Cc1c([C@@H](O)CN2CC3CC(C)N(C[C@H](O)c4ccc5c(c4C)COC5=O)C3C2)ccc2c1COC2=O` (single isomer, unassigned) [Example 12A]: the IC50 against hROMK (hKir1.1) came to 40 nM; on Kir1.1 (ROMK1), 82 nM. For the compound `Cc1c([C@@H](O)CN2CCCC3(CCCN(C(=O)c4ccc(-n5cnnn5)nc4)C3)C2)ccc2c1COC2=O` (single isomer, unassigned) [Example 13A], the half-maximal inhibitory concentration (IC50) at hROMK (hKir1.1) amounted to 86.3 nM; at Kir1.1 (ROMK1), 31 nM. For `Cc1c([C@@H](O)CN2CCC3(CCCN3S(=O)(=O)c3ccc(-n4cnnn4)cc3)C2)ccc2c1COC2=O` (single isomer, unassigned) [Example 19A], the IC50 against hROMK (hKir1.1) came out at 290 nM; at Kir1.1 (ROMK1), 46 nM. For the compound `Cc1c([C@@H](O)CN2CCC3(CCCN3S(=O)(=O)c3ccc(-n4cnnn4)cc3)C2)ccc2c1COC2=O` (single isomer, unassigned) [Example 19B], the IC50 against hROMK (hKir1.1) was 285 nM. As to `COc1cc(C(O)CN2CC3CN(C[C@H](O)c4ccc5c(c4C)COC5=O)C3C2)ncc1C#N` (single isomer, unassigned) [Example 24], it took 788 nM to reach half-maximal inhibition against hROMK (hKir1.1) (IC50). Turning to `Cc1c([C@@H](O)CN2CCCC3(CCCN(C(=O)c4ccc(S(C)(=O)=O)nc4)C3)C2)ccc2c1COC2=O` (stereo partly drawn) [Example 21, 5-((1R)-1-Hydroxy-2-(8-(6-(methylsulfonyl)nicotinoyl)-2,8-diazaspiro[5.5]undecan-2-yl)ethyl)-4-methylisobenzofuran-1(3H)-one], the IC50 on Kir1.1 (ROMK1) was 1000 nM.

Values taken from patent US9493474B2, “Inhibitors of the renal outer medullary potassium channel” (Merck Sharp & Dohme Corp., priority 2011, dated 2016).
